This assay concerns the target recombinant BIR3 domain of cIAP1 with N-terminal 6xHis tag (Artificial Sequence). Description: DELFIA displacement of AVPI-Biotin.

For the molecule AVPI, the half-maximal inhibitory concentration (IC50) amounted to 289 nM.

(Values after patent US20200345804A1.)
